Data taken from article PMC7872424, “Mining Natural Products for Macrocycles to Drug Difficult Targets” (Journal of Medicinal Chemistry, 2020).

How the values were obtained:
[1] = Clearance by human liver microsomes; assay type: in vitro ADME
Aqueous solubility = assay type: physicochemical

For `CC(=O)N1CCC[C@H]1C(=O)N[C@@H]1COC(=O)c2ccccc2CSC[C@H](C(=O)N(C)C)NC1=O` [Compound 14, (4S,7R)-7-((S)-1-Acetylpyrrolidine-2-carboxamido)-N,N-dimethyl-6,10-dioxo-1,3,4,5,6,7,8,10-octahydrobenzo[j][1]oxa[8]thia[5]azacyclododecine-4-carboxamide], the “in vitro microsomal clearance (in words)” value [1] was “medium” and the “aqueous solubility (in words)” value (Aqueous solubility) was “high”.
